One substance from patent publication US9603922B2, “Modulation of NKT cell activity with antigen-loaded CD1d molecules” (VACCINEX, INC., priority 2007, dated 2017) can be followed below.

For the assay, the system named is B16-HER2 cells. Nature of the assay: Precoating experiment, lung metastases of B16-HER2 cells. The class given is in vivo, mouse. As to conditions: cells pre-incubated with agent, injected i.v. into naïve mice. Here is the method: FIG. 5: Precoating experiment. B16-HER2 (a) and B16 wild type (B16 wt) cells (b) were precoated for 1 hour with 0.4 μg/ml αGalCer, 40 μg/ml αGalCer/CD1d-Her2 Fusion protein (Fusion), 10 μg/ml HERCEPTIN®, or 20 μg/ml αGalCer/sCD1d (sCD1d) and, with or without a previous wash, cells were injected i.v. Lung metastases were analyzed 3 weeks after graft with the ImageJ k-means clustering program and results are expressed as percentage of black metastatic surface over total lung surface. *P<0.005 compared to PBS control.
Quantification of lung metastasis. Metastatic nodule surface area was measured on 2560×1920 pixels photographs of the whole organs, taken on an Zeiss STEMI SV11 dissection microscope (Carl Zeiss, Jena, Germany) equipped with a PROGRES-C10plus Color Camera (Jenoptik, Jena, Germany). Each image was analyzed with the ImageJ program (rsb.info.nih.gov/ij/) using a k-means clustering algorithm (plugin available on ij-plugins.sourceforge.net). Images were segmented into 9 segments cluster tolerance 1×10−4, randomization seed: 48) and the appropriate segments were selected based on the color of the metastasis reaching the surface of the organ. The area of the sum of selected color segments was expressed as percentage of the area occupied by the lungs. Both sides of the lung were analyzed. This method takes into account both the number and the size of the tumor nodules. […]

For “HERCEPTIN: humanized anti-HER2 monoclonal antibody (Hoffmann-La-Roche)”, the “Lung metastases of precoated B16-HER2 cells” value was “unable to inhibit lung metastases”.
